Assay results reported in paper PMC8292411 (British Journal of Cancer, 2021).
Structures can show the parent of a compound that is named as a salt.

What was measured:
[1] = system: SACT-naive Asian patients with aHCC with MET overexpression; experiment: Phase 2 safety (adverse events, NCI-CTCAE v4.0); conditions: for treatment-related AEs: ALT increased / treatment-related AEs: AST increased / treatment-related AEs: Alopecia / treatment-related AEs: Amylase increased / treatment-related AEs: Blood bilirubin increased / treatment-related AEs: Blood creatinine increased / treatment-related AEs: Decreased appetite / treatment-related AEs: Dermatitis acneiform / treatment-related AEs: Diarrhoea / treatment-related AEs: Fatigue / treatment-related AEs: Hypertension / treatment-related AEs: Hypoalbuminaemia / treatment-related AEs: Lipase increased / treatment-related AEs: Oedema peripheral / treatment-related AEs: Overall / treatment-related AEs: PPES: Phase 2, safety analysis set
Protocol: (§1) Patients in both phases continued to receive allocated therapy until disease progression, intolerable toxicity or withdrawal of consent.
DLTs are defined in Supplementary Table 3.
(§2) In Phase 2, analyses were conducted according to randomised treatment assignment. […] In total, 100 TTP events were required to ensure 80% power (with a two-sided significance level of 10%) for rejecting the null hypothesis of equal treatment effect between treatment arms, assuming a true hazard ratio (HR) of 0.6. […] For the primary and secondary time-to-event endpoints, treatment groups were compared in the mITT population, applying a two-sided log-rank test, stratified by BCLC stage (α = 10%).

[2] = system: advanced HCC with MET overexpression; experiment: Phase 2 randomised efficacy, tepotinib vs sorafenib (TTP, PFS, OS, response; RECIST v1.1); assay type: in vivo, human; conditions: Phase 2, mITT
From the text: as §1
In Phase 2, the primary endpoint was independent review committee (IRC)-assessed time to progression (TTP) per Response Evaluation Criteria in Solid Tumors (RECIST) v1.1. Secondary endpoints included investigator-assessed TTP, IRC- and investigator-assessed progression-free survival (PFS), objective response rate (ORR), disease control rate, OS and safety. In both phases, tumour assessments were performed according to RECIST v1.1 based on scans taken at the end of every second cycle until Cycle 13, and every four cycles thereafter.
as §2

Compound: CN1CCC(COc2cnc(-c3cccc(Cn4nc(-c5cccc(C#N)c5)ccc4=O)c3)nc2)CC1 [Tepotinib, tepotinib hydrochloride hydrate]
- deaths deemed treatment-related ([1]; Phase 2): one instance of upper gastrointestinal haemorrhage
- decreased appetite, any cause ([1]; Phase 2): 35.6%
- diarrhoea, any cause ([1]; Phase 2): 37.8%
- patients who died due to AEs of any cause ([1]; Phase 2): 13.3%
- patients with Grade ≥3 AEs of any cause ([1]; Phase 2): 60%
- peripheral oedema, any cause ([1]; Phase 2): 42.2%
- permanent discontinuation due to QT interval prolongation ([1]; Phase 2): 1 n
- permanent discontinuation due to ascites ([1]; Phase 2): 1 n
- permanent discontinuation due to fatigue ([1]; Phase 2): 2 n
- permanent discontinuation due to hepatic encephalopathy ([1]; Phase 2): 1 n
- permanent discontinuation due to hepatic failure ([1]; Phase 2): 1 n
- permanent discontinuation due to upper gastrointestinal haemorrhage ([1]; Phase 2): 1 n
- permanent treatment discontinuation due to AEs of any cause ([1]; Phase 2): 15.6%
- treatment-related diarrhoea ([1]; Phase 2, any grade): 35.6%
- treatment-related fatigue ([1]; Phase 2, any grade): 20.0%
- treatment-related peripheral oedema ([1]; Phase 2, any grade): 24.4%
- patients with AEs of any cause (in words) ([1]; Phase 2, n = 45): All patients
- treatment-related AEs: ALT increased ([1]; Any grade): 4 (8.9) n (%)
- treatment-related AEs: AST increased ([1]; Any grade): 5 (11.1) n (%)
- treatment-related AEs: Alopecia ([1]; Any grade): 1 (2.2) n (%)
- treatment-related AEs: Amylase increased ([1]; Any grade): 3 (6.7) n (%)
- treatment-related AEs: Blood bilirubin increased ([1]; Any grade): 2 (4.4) n (%)
- treatment-related AEs: Blood creatinine increased ([1]; Any grade): 6 (13.3) n (%)
- treatment-related AEs: Decreased appetite ([1]; Any grade): 8 (17.8) n (%)
- treatment-related AEs: Dermatitis acneiform ([1]; Any grade): 0 (0.0) n (%)
- treatment-related AEs: Diarrhoea ([1]; Any grade): 16 (35.6) n (%)
- treatment-related AEs: Fatigue ([1]; Any grade): 9 (20.0) n (%)
- treatment-related AEs: Hypertension ([1]; Any grade): 0 (0.0) n (%)
- treatment-related AEs: Hypoalbuminaemia ([1]; Any grade): 5 (11.1) n (%)
- treatment-related AEs: Lipase increased ([1]; Any grade): 1 (2.2) n (%)
- treatment-related AEs: Oedema peripheral ([1]; Any grade): 11 (24.4) n (%)
- treatment-related AEs: Overall ([1]; Any grade): 37 (82.2) n (%)
- treatment-related AEs: PPES ([1]; Any grade): 8 (17.8) n (%)
- treatment-related AEs: ALT increased ([1]; Grade ≥ 3): 0 (0.0) n (%)
- treatment-related AEs: AST increased ([1]; Grade ≥ 3): 2 (4.4) n (%)
- treatment-related AEs: Alopecia ([1]; Grade ≥ 3): 0 (0.0) n (%)
- treatment-related AEs: Amylase increased ([1]; Grade ≥ 3): 2 (4.4) n (%)
- treatment-related AEs: Blood bilirubin increased ([1]; Grade ≥ 3): 1 (2.2) n (%)
- treatment-related AEs: Blood creatinine increased ([1]; Grade ≥ 3): 0 (0.0) n (%)
- treatment-related AEs: Decreased appetite ([1]; Grade ≥ 3): 0 (0.0) n (%)
- treatment-related AEs: Dermatitis acneiform ([1]; Grade ≥ 3): 0 (0.0) n (%)
- treatment-related AEs: Diarrhoea ([1]; Grade ≥ 3): 2 (4.4) n (%)
- treatment-related AEs: Fatigue ([1]; Grade ≥ 3): 2 (4.4) n (%)
- treatment-related AEs: Hypertension ([1]; Grade ≥ 3): 0 (0.0) n (%)
- treatment-related AEs: Hypoalbuminaemia ([1]; Grade ≥ 3): 0 (0.0) n (%)
- treatment-related AEs: Lipase increased ([1]; Grade ≥ 3): 0 (0.0) n (%)
- treatment-related AEs: Oedema peripheral ([1]; Grade ≥ 3): 0 (0.0) n (%)
- treatment-related AEs: Overall ([1]; Grade ≥ 3): 13 (28.9) n (%)
- treatment-related AEs: PPES ([1]; Grade ≥ 3): 1 (2.2) n (%)
- treatment-related AEs, Grade ≥3, overall ([1]; Phase 2, text): 28.9%
- treatment-related AEs, any grade, overall ([1]; Phase 2, text): 82.2%
- ORR by IRC [2]: 10.5%
- median OS [2]: 9.3 months
- median PFS assessed by IRC [2]: 2.8 months
- median investigator-assessed PFS [2]: 3.2 months
- median investigator-assessed TTP [2]: 5.6 months
- Best overall response: Complete response ([2]; IRC): 0 (0.0)
- Best overall response: Non-complete response/non-partial response ([2]; IRC): 2 (5.3)
- Best overall response: Not evaluable ([2]; IRC): 4 (10.5)
- Best overall response: Partial response ([2]; IRC): 4 (10.5)
- Best overall response: Progressive disease ([2]; IRC): 13 (34.2)
- Best overall response: Stable disease ([2]; IRC): 15 (39.5)
- Objective response rate ([2]; IRC): 4 (10.5) n (%)
- best overall response of PR ([2]; IRC): 10.5%
- disease control ([2]; IRC): 50%
- disease control rate ([2]; IRC): 19 (50.0) n (%)
- median IRC-assessed time to progression (TTP) ([2]; tepotinib 500 mg QD, sorafenib 400 mg twice daily): 2.9 months
- IRC-assessed TTP, stratified HR ([2]; tepotinib versus sorafenib): 0.42
- OS, stratified HR ([2]; tepotinib versus sorafenib): 0.73
- PFS assessed by IRC, stratified HR ([2]; tepotinib versus sorafenib): 0.53
- investigator-assessed PFS, HR ([2]; tepotinib versus sorafenib): 0.59
- investigator-assessed TTP, HR ([2]; tepotinib versus sorafenib): 0.45
